Legend:
[1] = water
[2] = type: physicochemical; settings: simulated rain solution saturated with the pigment; electrolyte pH about 4.2

## Zinc Dibasate Diethylamine [Compound 9]
[1]
  Solubility: .02
  Solubility description: PINS (key: PINS: practically insoluble (<.1 g/100cc H2 O); SS: slightly soluble (.1 to 1 g/100cc H2 O); MS: moderately soluble)

## Zinc Quinizarinate Ethylenediamine [Compound 22]
[2]
  pH: 7.75

— US4626283A, “Corrosion and marine growth inhibiting compositions” (Engelhard Corporation, priority 1985, dated 1986)
